AlphaSeq binding of Ab-95 light chain variants to a spike HR2 peptide

From the AlphaSeq antibody data of Engelhart et al. 2022 (doi:10.1038/s41597-022-01779-4), copy in the FLAb collection.

Antigen: PDVDLGDISGINAS, a 14-residue peptide of the SARS-CoV-2 spike HR2 region.

Ab-95 is the parent antibody, in scFv form: VH, then three GGGGS repeats, then VL. The heavy chain is unchanged in all variants.
VH: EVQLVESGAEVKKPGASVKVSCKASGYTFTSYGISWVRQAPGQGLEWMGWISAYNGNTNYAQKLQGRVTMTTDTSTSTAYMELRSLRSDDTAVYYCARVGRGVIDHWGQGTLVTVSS
VL: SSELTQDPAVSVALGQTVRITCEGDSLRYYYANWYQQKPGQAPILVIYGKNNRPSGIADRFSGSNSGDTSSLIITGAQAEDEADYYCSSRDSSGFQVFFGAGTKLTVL

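Phage display of a naive human antibody library on the peptide gave the parent. AAYL52 was designed without a model: most single CDR substitutions and a random sample of double and triple ones. The scFvs were displayed on barcoded MATa yeast, the peptide on MATalpha yeast. Binding brings cells together so that they mate, and sequencing counts the barcode pairs among the diploids. Scores were corrected for input abundance and mapped to Kd with protein pairs of known affinity run in the same pool. There are three technical replicates.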

Positions count from residue 1 of the parent VL; S26T puts T in place of S. Scale: log10 of Kd in nM, estimated from mating counts; low values are strong binders. The mean shown is taken over the replicates in which the pair was detected. Where no diploid with the target was found in any replicate, the entry reads "no signal": below detection, most likely a poor binder, though not proof of it.

changes | log10 Kd (nM), mean | detected
S26T/F95W/F98W | 3.75 | 3/3
D25R/K50R/D91E | 3.51 | 1/3
D25C/N51S/Q96Y | no signal | 0/3
K50T/S88W/F98W | 3.09 | 3/3
N33Y/P54A/S55R | 4.05 | 1/3
D25N/K50A/N51K | 2.55 | 3/3
N33L/K50R/D91A | 3.17 | 1/3
Y31G/N33I/P54W | 3.90 | 2/3
R28V/R53L | 3.78 | 3/3
E23P/R28K/Y31I | 2.86 | 3/3
G49K/R90W/S92F | no signal | 0/3
G49R/S88H/Q96A | 4.20 | 2/3
S26D/Y29K/R53W | 4.06 | 1/3
S93T/F95E | 2.54 | 3/3
S89E/S92R/V97H | no signal | 0/3
R53P/S88C/R90H | no signal | 0/3
G24R/S93M | 3.27 | 1/3
G24C/L27W/Y30S | 3.00 | 3/3
E23N/D25A/S92G | 2.57 | 3/3
G49I/P54V/G94M | no signal | 0/3
G49S/S55D/V97F | 4.24 | 1/3
G24Y/A32I/G49Y | 5.23 | 1/3
L27M/Y29N/N33V | 3.55 | 3/3
D25A/P54A/S55V | 1.98 | 3/3
P54A/S88M/F98A | 1.83 | 3/3
G49E/R90Y/G94R | no signal | 0/3
L27Q/S89G/S93V | no signal | 0/3
S55E/S88E/R90A | 3.61 | 2/3
D25A/A32T/K50V | 2.76 | 3/3
N51L/R53Q | 3.15 | 1/3
S26H/N52K/G94K | 3.42 | 1/3
D25C/S88I/G94I | no signal | 0/3
E23V/S26T/F98E | 2.88 | 3/3
G24W/N33H/N52R | no signal | 0/3
D25M/S92E | 2.27 | 3/3
L27G/R53K/S55M | no signal | 0/3
R53Y/S55Y/V97F | no signal | 0/3
G24M/Y29H/V97D | 2.70 | 1/3
N33A/P54G/F95G | 3.10 | 1/3
P54N/G94M | 3.71 | 3/3
E23D/P54E/Q96W | 3.50 | 1/3
G24A/R28V/Y31C | 3.35 | 2/3
K50H/S88D/F95H | no signal | 0/3
R28G/K50I/S88W | 4.79 | 1/3
N33E/S92A | 3.80 | 1/3
R28Y/S55F/V97F | 2.64 | 3/3
L27M/A32L/S88A | no signal | 0/3
L27F/S88K | no signal | 0/3

From the list, the first 7 with no signal in any replicate:

changes	log10 Kd (nM), mean	detected
D25C/N51S/Q96Y	no signal	0/3
G49K/R90W/S92F	no signal	0/3
S89E/S92R/V97H	no signal	0/3
R53P/S88C/R90H	no signal	0/3
G49I/P54V/G94M	no signal	0/3
G49E/R90Y/G94R	no signal	0/3
L27Q/S89G/S93V	no signal	0/3

Nonspecific signal, from three strains lacking the peptide, appeared in 28% of pairings of library AAYL52, centred on 3.91 (5% of these signals below 2.90); values are not corrected for it.